Test results from patent publication US4649911A, “Small particle aerosol generator for treatment of respiratory disease including the lungs” (Baylor College of Medicine, priority 1986, dated 1987).
Where two headings read alike, the source gives them in different places.

Conditions: for total white blood cell count: both treated and control

NC(=O)c1ncn([C@@H]2O[C@H](CO)[C@@H](O)[C@H]2O)n1 [ribavirin]
other clinical chemical tests, sporadic slight elevations (all three time periods, treated and control): not considered to indicate drug toxicity | direct bilirubin, one patient (at admission (before treatment)): 1.0 mg/dL | total white blood cell count (at admission): about 6,000 | direct bilirubin, one patient (at discharge): 0.5 mg/dL | total white blood cell count (at discharge): about 4500 | direct bilirubin, one patient (at one month): normal | absolute polymorphonuclear count (treated and control, consistent with drop in white count): major reduction | hematocrit, hemoglobin, and red cell count (treated versus control, admission or discharge): no significant changes | direct bilirubin, mean (treated, at admission (before treatment), controls 0.12 mg/dl, P=0.03): 0.24 mg/dL | creatine phosphokinase, mean (treated, at discharge, control 81 units/ml, P=0.04, due to 5 patients already elevated before treatment): 284 units/ml | patients with abnormally high CPK values (treated, at followup, 4 control also): 4
